Test: Ultracentrifugation of hydrophobic pDNA complexes on sucrose gradient, fraction fluorescence (Example 61)
Type: physicochemical
Settings: sucrose gradient 18-54%, 35 krpm, 20 hr
Experimental: To H2O (1000 μL) was added either polymer or detergent and vortexed. To the resulting solution was added RhDNA or Rh-DNA-NC12-PyrDet (50 μg) and vortexed. The samples were loaded into tubes prepared with a sucrose gradient (18-54%, 10 mM Hepes, 1 mM EDTA, 9.5 mL) and trizamide as the base (cushion). The samples were centrifugated at 35 krpm at 4C. under vacuum for 20 hr. Each sample was separated into 750 μL fractions, fractionating from the bottom of the tube to the top. To each fraction was added NaCl (150 μL, of 5 M, 1 M final) and Triton (37.5 μL of 20%, 1% final) with vortexing. The fractions were analyzed on a spectrofluorometer (Varian Cary Eclipse) at the rhodamine (Ex 555 nm and Em 585 nm), FITC (Ex 495 nm and Em 530 nm), and pyrene (Ex 340nm and Em 377 nm) channels.

In the case of “pyrenedodecanoic-3-trimethylaminopropylamine carboxamide iodide [pyrene detergent]”, the “Pyrene fluorescence of fractions after ultracentrifugation” value is reported as “remains in the top fractions”.
